Reference: ChEMBL document CHEMBL5321195, “Exploring the Effect of Halogenation in a Series of Potent and Selective A2B Adenosine Receptor Antagonists” (J Med Chem, 2023)

Target: Adenosine receptor A2a (Homo sapiens) (UniProt P29274)
Test: Displacement of [3H]DPCPX from human A2AAR expressed in human HeLa cell membrane at 1 uM incubated for 30 mins by competitive binding assay relative to control
Type: cell membranes

- Activity: 11%
SMILES: CCOC(=O)C1=C(C)Nc2nc3ccccc3n2C1c1cocn1 (stereo unspecified)
